Experimental findings from US10202345B2, “Substituted azaspiro(4.5)decane derivatives” (priority 2014, dated 2019) are described below.

The chains behind the UniProt entries cited, without tags or fusion partners. Where a name states a change or a piece, a line headed by the entry shows the natural chain unless it says otherwise.
UniProt P41146: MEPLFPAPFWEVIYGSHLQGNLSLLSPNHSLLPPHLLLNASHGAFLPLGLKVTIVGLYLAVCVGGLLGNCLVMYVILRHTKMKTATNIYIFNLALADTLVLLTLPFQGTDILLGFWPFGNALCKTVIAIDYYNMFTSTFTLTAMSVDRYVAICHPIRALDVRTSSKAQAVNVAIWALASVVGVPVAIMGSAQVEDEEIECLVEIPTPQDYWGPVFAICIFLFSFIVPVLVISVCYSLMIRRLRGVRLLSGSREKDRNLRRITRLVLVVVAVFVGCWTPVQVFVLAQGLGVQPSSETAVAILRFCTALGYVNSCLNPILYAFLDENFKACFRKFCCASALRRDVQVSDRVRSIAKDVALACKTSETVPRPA
UniProt P35372, whole entry, looked up: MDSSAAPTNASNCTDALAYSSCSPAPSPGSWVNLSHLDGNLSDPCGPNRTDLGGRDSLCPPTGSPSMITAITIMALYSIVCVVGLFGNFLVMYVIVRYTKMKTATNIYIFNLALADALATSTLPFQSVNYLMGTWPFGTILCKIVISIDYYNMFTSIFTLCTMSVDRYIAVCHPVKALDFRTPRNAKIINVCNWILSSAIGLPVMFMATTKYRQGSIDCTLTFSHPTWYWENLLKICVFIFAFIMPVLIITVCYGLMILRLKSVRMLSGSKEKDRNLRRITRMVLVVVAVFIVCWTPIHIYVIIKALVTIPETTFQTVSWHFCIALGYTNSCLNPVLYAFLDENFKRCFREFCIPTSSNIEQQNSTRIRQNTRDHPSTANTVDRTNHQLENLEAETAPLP

The term pKi denotes −log10 of the Ki, conventionally taken in molar units.

pKi: −log10 of the molar value.

In one assay the target is ORL1 receptor (Homo sapiens, UniProt P41146). The assay is described as follows: ORL1 receptor binding assay with 3H-nociceptin/orphanin FQ (WGA-SPA beads). As to conditions: for pKi: read-out: Ki (ORL1) mean, mean; for % inhibition (ORL1) [1 μM]: test concentration 1 μM.
Another assay has as its target human μ opiate receptor (Homo sapiens, UniProt P35372). Description: μ opiate receptor binding assay with [3H]-naloxone (WGA-SPA beads). As to conditions: for pKi: read-out: Ki (μ) mean [μm], mean; for % inhibition (μ) [1 μM]: test concentration 1 μM.

With `CN(C)C1(C2CCCC2)CCC2(CCN(CC3CC3)C2)CC1` (stereo not shown), on ORL1 receptor, the pKi is 7.96 and the “% inhibition (ORL1) [1 μM]” value is on record as 82.5%. At human μ opiate receptor, the pKi is 7.77 and the “% inhibition (μ) [1 μM]” value is on record as 88.67%.
As to `CN(C)C1(C2CCCC2)CCC2(CCN(C(=O)CC(C)(C)C#N)C2)CC1` (stereo not shown), on ORL1 receptor, the negative-log Ki (pKi) is 7.21 and the “% inhibition (ORL1) [1 μM]” value was found to be 67%. In addition, on human μ opiate receptor, the negative logarithm of the Ki (pKi) was 7.21 and the “% inhibition (μ) [1 μM]” value worked out at 95.5%.
In the case of `CN(C)C1(c2ccccc2)CCC2(CCN(CC3(O)CCC3)C2)CC1` (stereo not shown), on ORL1 receptor, the pKi was 8.01 and the “% inhibition (ORL1) [1 μM]” value turned out to be 89%. In addition, at human μ opiate receptor, the pKi is 8.21 and the “% inhibition (μ) [1 μM]” value stood at 97%.
As to `CN(C)C1(c2cccs2)CCC2(CCN(CC3CCC3)C2)CC1` (stereo not shown), at ORL1 receptor, the pKi was 8.77 and the “% inhibition (ORL1) [1 μM]” value is reported as 97%. Moreover, on human μ opiate receptor, the pKi is 8.99 and the “% inhibition (μ) [1 μM]” value is 100%.
As to `COCC1(C(=O)N2CCC3(CCC(c4ccc(F)s4)(N(C)C)CC3)C2)CC1` (stereo not shown), the pKi was 6.77 on ORL1 receptor and 7.65 on human μ opiate receptor. For the same compound, the “% inhibition (μ) [1 μM]” value at human μ opiate receptor is given as 93%.
Take `CN(C)C1(c2ccccc2)CCC2(CCN(CCC3COC3)C2)CC1` (stereo not shown): at ORL1 receptor, the pKi was 7.51 and the “% inhibition (ORL1) [1 μM]” value is 91.5%. For the same compound, on human μ opiate receptor, the pKi is 7.96 and the “% inhibition (μ) [1 μM]” value is 99.5%.
With `CN(C)C1(c2cccs2)CCC2(CCN(CC3(C#N)CC3)C2)CC1` (stereo not shown), on ORL1 receptor, the pKi is 7.72 and the “% inhibition (ORL1) [1 μM]” value turned out to be 85%. Besides, on human μ opiate receptor, the pKi was 7.89 and the “% inhibition (μ) [1 μM]” value is 96%.
For `CN(C)C1(c2ccccc2)CCC2(CCN(CCC(C)(C)O)C2)CC1` (stereo not shown) the same measures were 8.15, 91%, 8.13 and 95.5%.
For `CN(C)C1(C2CCCC2)CCC2(CC1)CC(=O)N(CC1CCC1)C2` (stereo not shown) the same measures were 8.13, 0%, 8.70 and 0%.
For `CN(C)C1(c2ccccc2)CCC2(CCN(C(=O)C3CCOCC3)C2)CC1` (stereo not shown) the same measures were 7.27, 78.5%, 7.19 and 92.5%.
Turning to `CNC1(c2cccs2)CCC2(CCN(C(=O)CC(C)C)C2)CC1` (stereo not shown), on ORL1 receptor, the negative logarithm of the Ki (pKi) is 7.74 and the “% inhibition (ORL1) [1 μM]” value was determined as 72%. Moreover, at human μ opiate receptor, the negative logarithm of the Ki (pKi) is 8.38 and the “% inhibition (μ) [1 μM]” value was 98%.
For `CCCCN1CCC2(CCC(c3ccc(F)s3)(N(C)C)CC2)C1` (stereo not shown) the same measures were 8.17, 86.5%, 8.09 and 95.5%.
With “1-[8-Dimethylamino-8-(5-fluorothiophen-2-yl)-3-azaspiro[4.5]decan-3-yl]-3-methoxy-3-methylbutan-1-one”, at ORL1 receptor, the pKi was 8.66 and the “% inhibition (ORL1) [1 μM]” value is recorded as 93.5%. For the same compound, at human μ opiate receptor, the pKi is 9.40 and the “% inhibition (μ) [1 μM]” value turned out to be 99.5%.
For `CN(C)C1(c2cccs2)CCC2(CCN(CC(C)(C)O)C2)CC1` (stereo not shown) the same measures were 7.78, 81.5%, 7.76 and 94%.
For `COCC1(C(=O)N2CCC3(CCC(c4cccs4)(N(C)C)CC3)C2)CCC1` (stereo not shown) the same measures were 7.26, 74%, 8.13 and 99.5%.
For `CN(C)C1(c2ccccc2)CCC2(CCN(C(=O)C3(C#N)CC3)C2)CC1` (stereo not shown) the same measures were 6.99, 48.5%, 7.08 and 87%.
Turning to `COCC(C)(C)C(=O)N1CCC2(CCC(c3ccc(Cl)s3)(N(C)C)CC2)C1` (stereo not shown), at ORL1 receptor, the pKi was 7.01 and the “% inhibition (ORL1) [1 μM]” value was determined as 55%. On human μ opiate receptor, the pKi was 8.80 and the “% inhibition (μ) [1 μM]” value is listed as 99%.
For `CN(C)C1(c2cccs2)CCC2(CCN(C(=O)CC3COC3)C2)CC1` (stereo not shown) the same measures were 7.71, 82.5%, 8.52 and 99.33%.
Regarding `COC(C)(C)CN1CCC2(CCC(c3ccccc3)(N(C)C)CC2)C1` (stereo not shown), at ORL1 receptor, the pKi was 7.90 and the “% inhibition (ORL1) [1 μM]” value is on record as 88.5%. Moreover, at human μ opiate receptor, the pKi is 8.27 and the “% inhibition (μ) [1 μM]” value came out at 98%.
For `CN(C)C1(C2CCCC2)CCC2(CCN(CC3CCOCC3)C2)CC1` (stereo not shown) the same measures were 7.54, 71%, 8.22 and 95.5%.
For `Cc1ccc(C2(N(C)C)CCC3(CCN(C(=O)C4CC4)C3)CC2)s1` (stereo not shown) the same measures were 6.59, 34.5%, 7.11 and 86.5%.
As for `CN(C)C1(c2cccs2)CCC2(CCN(C(=O)C(C)(C)C#N)C2)CC1` (stereo not shown), at ORL1 receptor, the negative logarithm of the Ki (pKi) is 6.98 and the “% inhibition (ORL1) [1 μM]” value is given as 43.5%. On human μ opiate receptor, the pKi was 7.33 and the “% inhibition (μ) [1 μM]” value turned out to be 87%.
For `CCCC(=O)N1CCC2(CCC(c3ccc(Cl)s3)(N(C)C)CC2)C1` (stereo not shown) the same measures were 7.13, 72%, 7.90 and 97.5%.
For the compound `Cc1ccc(C2(N(C)C)CCC3(CCN(C(=O)C4CCC4)C3)CC2)s1` (stereo not shown), on ORL1 receptor, the pKi is 7.64 and the “% inhibition (ORL1) [1 μM]” value was 73.5%. On human μ opiate receptor, the pKi is 8.09 and the “% inhibition (μ) [1 μM]” value amounted to 98.5%.
For `CN(C)C1(c2ccccc2)CCC2(CC1)CC(=O)N(CCC1CC1)C2` (stereo not shown) the same measures were 6.63, 37.5%, 5.69 and 70%.
For `CN(C)C1(c2ccccc2)CCC2(CC1)CC(=O)N(CC(C)(C)C#N)C2` (stereo not shown) the same measures were 8.30, 91%, 8.30 and 96.5%.
For `COCC1(C(=O)N2CCC3(CCC(c4ccc(C)s4)(N(C)C)CC3)C2)CCC1` (stereo not shown) the same measures were 6.94, 42%, 8.20 and 96.5%.
As to `Cc1ccc(C2(N(C)C)CCC3(CC2)CC(=O)N(CC2CCC2)C3)s1` (stereo not shown), on ORL1 receptor, the pKi was 6.46 and the “% inhibition (ORL1) [1 μM]” value came out at 63%. On human μ opiate receptor, the pKi was 7.27 and the “% inhibition (μ) [1 μM]” value is 97%.
For `CN(C)C1(C2CCCC2)CCC2(CCN(CCC3(C#N)CC3)C2)CC1` (stereo not shown) the same measures were 7.41, 64%, 8.80 and 97.7%.
For `CN(C)C1(c2cccs2)CCC2(CCN(C(=O)C3(C#N)CCC3)C2)CC1` (stereo not shown) the same measures were 7.70, 78%, 8.15 and 96.5%.
With `COCC1(C(=O)N2CCC3(CCC(c4ccc(F)s4)(N(C)C)CC3)C2)CCC1` (stereo not shown), the negative-log Ki (pKi) at ORL1 receptor was 6.87. For the same compound, on human μ opiate receptor, the pKi was 8.00 and the “% inhibition (μ) [1 μM]” value is given as 94.5%.
Consider `CN(C)C1(c2ccccc2)CCC2(CCN(CCC3CCOC3)C2)CC1` (stereo not shown), for which, at ORL1 receptor, the pKi is 8.17 and the “% inhibition (ORL1) [1 μM]” value was 94%. Besides, at human μ opiate receptor, the pKi is 8.41 and the “% inhibition (μ) [1 μM]” value worked out at 97.5%.
Turning to `CCCC(=O)N1CCC2(CCC(c3ccc(F)s3)(N(C)C)CC2)C1` (stereo not shown), on ORL1 receptor, the pKi is 7.52 and the “% inhibition (ORL1) [1 μM]” value turned out to be 86.5%. On human μ opiate receptor, the pKi is 7.59 and the “% inhibition (μ) [1 μM]” value came out at 97.5%.
For `CN(C)C1(c2ccccc2)CCC2(CC1)CC(=O)N(CCC1CCOCC1)C2` (stereo not shown) the same measures were 7.89, 94%, 8.33 and 98.5%.
For `CN(C)C1(c2cccs2)CCC2(CCN(CCC3(O)CC3)C2)CC1` (stereo not shown) the same measures were 8.78, 97.5%, 8.60 and 98.5%.
For `CCCCN1CCC2(CCC(c3cccs3)(N(C)C)CC2)C1=O` (stereo not shown) the same measures were 6.22, 28%, 6.77 and 65%.
For the compound `CN(C)C1(c2ccccc2)CCC2(CCN(C(=O)C3COC3)C2)CC1` (stereo not shown), on ORL1 receptor, the pKi was 7.37 and the “% inhibition (ORL1) [1 μM]” value turned out to be 77.5%. For the same compound, on human μ opiate receptor, the pKi is 7.44 and the “% inhibition (μ) [1 μM]” value was found to be 93.5%.
In the case of `CN(C)C1(c2ccccc2)CCC2(CCN(CCC3(C#N)CCC3)C2)CC1` (stereo not shown), at ORL1 receptor, the pKi was 8.64 and the “% inhibition (ORL1) [1 μM]” value turned out to be 92.5%. Moreover, at human μ opiate receptor, the pKi is 8.87 and the “% inhibition (μ) [1 μM]” value is 98%.
For `COC(C)(C)CN1CC2(CCC(c3ccccc3)(N(C)C)CC2)CC1=O` (stereo not shown) the same measures were 8.76, 95.5%, 8.55 and 99%.
As for “8-Butyl-8-dimethylamino-8-phenyl-3-azaspiro[4.5]decan-4-one”, the “% inhibition (ORL1) [1 μM]” value on ORL1 receptor was 10%. The “% inhibition (μ) [1 μM]” value on human μ opiate receptor is reported as 0%.
With `CN(C)C1(c2ccccc2)CCC2(CC1)CC(=O)N(CC(C)(C)O)C2` (stereo not shown), on ORL1 receptor, the pKi is 7.99 and the “% inhibition (ORL1) [1 μM]” value turned out to be 77%. On human μ opiate receptor, the negative logarithm of the Ki (pKi) is 7.36 and the “% inhibition (μ) [1 μM]” value came out at 91.5%.
